Data: patent US11939340B2, “CDK inhibitors and their use as pharmaceuticals” (Prelude Therapeutics Incorporated, priority 2022, dated 2024)

By UniProt entry, the sequences of proteins in these tests, tags left out.
UniProt P11802, whole entry: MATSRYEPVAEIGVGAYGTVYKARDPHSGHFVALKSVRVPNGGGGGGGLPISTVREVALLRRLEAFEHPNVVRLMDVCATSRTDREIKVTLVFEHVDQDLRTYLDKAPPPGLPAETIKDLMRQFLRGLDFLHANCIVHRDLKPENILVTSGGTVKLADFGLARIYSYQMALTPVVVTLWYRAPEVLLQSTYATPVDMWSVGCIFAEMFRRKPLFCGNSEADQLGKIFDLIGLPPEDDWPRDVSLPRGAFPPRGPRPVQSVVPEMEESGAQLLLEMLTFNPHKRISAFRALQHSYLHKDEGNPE
UniProt P24385, whole entry partner: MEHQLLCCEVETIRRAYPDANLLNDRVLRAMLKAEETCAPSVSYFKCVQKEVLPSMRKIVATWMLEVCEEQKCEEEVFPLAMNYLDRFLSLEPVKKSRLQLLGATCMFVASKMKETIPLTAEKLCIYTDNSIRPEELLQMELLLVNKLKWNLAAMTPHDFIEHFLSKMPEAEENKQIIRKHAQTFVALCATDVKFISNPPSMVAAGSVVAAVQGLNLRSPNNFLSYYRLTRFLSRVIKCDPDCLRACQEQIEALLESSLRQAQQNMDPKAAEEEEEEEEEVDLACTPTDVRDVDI

What follows are compounds tested against CDK2/Cyclin E2 (Homo sapiens, UniProt P24941) (assay: CDK2/CyclinE2 Enzymatic Activity Assay (TR-FRET)). Conditions: read-out: CDK2_El IC50, CDK2/CyclinE2 1 nM, ATP 1 mM.
Protocol: CDK2/CyclinE2 Enzymatic Activity Assay
The inhibitory activity of compounds was evaluated in vitro using TR-FRET assay with white 384-well low volume microplate (Greiner Bio-One). CDK2/Cyclin E2 catalyzed phosphorylation of peptide in the presence and absence of compounds was measured and used in IC50 determination. Recombinant protein complex CDK2/Cyclin E2, expressed from insect cell, was purchased from ProQinase. Testing compounds were dissolved in DMSO at 1 mM and tested in 9-dose IC50 mode. The reaction mixture was prepared by mixing CDK2/CyclinE2 (1 nM final), ULight-4E-BP1 (50 nM final, Perkinelmer, TRF0128-D), and ATP (1 mM final) in assay buffer (20 mM of HEPES pH 7.4, 1 mM of EGTA, 0.05% BSA, 0.005% Tween 20, and 1 mM TCEP). The compound of interest in DMSO was added to each well in 3-fold serial dilution by dispenser (TECAN D300E) to make a 9.9 μL of reaction mixture. After 20 minutes preincubation at room temperature, 0.1 μL MgCl2 (10 mM final) was added to initiate the reaction. Following a 45 minute incubation at 37° C., the reaction was stopped by addition of 2 μL of quenching buffer consisting of Lance detection buffer (Perkinelmer CR97-100C), LANCE Ultra Europium-anti-P-4E-BP1 (Perkinelmer, TRF0216-D), EDTA, and incubate at room temperature for additional 60 minutes in the dark. The reaction signal was measured by Envision multimode plate reader (PerkinElmer, 2102-0010). IC50 values were determined by fitting the data to the standard 4 parameters with Hill Slope using GraphPad Prism software.

| Structure (SMILES) | IC50 |
| --- | --- |
| CC12CCCCN1C(=O)c1cc(-c3nc(NC4CCN(S(C)(=O)=O)CC4)ncc3F)sc12 (single isomer, unassigned) [8 or 7] | < 100 nM |
| CC(C)C12CCCN1C(=O)c1cc(-c3nc(NC4CCN(S(C)(=O)=O)CC4)ncc3C(F)(F)F)sc12 (single isomer, unassigned) | < 100 nM |
| CC(C)C12CCCCN1C(=O)c1cc(-c3nc(NC4CCN(S(C)(=O)=O)CC4)ncc3C(F)(F)F)sc12 (single isomer, unassigned) | < 100 nM |
| CC12CCCCN1C(=O)c1cc(-c3nc(NC4CCN(S(C)(=O)=O)CC4)ncc3F)sc12 (single isomer, unassigned) [7 or 8] | < 100 nM |

Each compound was assayed on pRB in OVCAR3 cells (assay: pRB ICW Assay in OVCAR3 Cells). Conditions: read-out: OVCAR3 p-RB ICW IC50, incubated with compound for 2 hours.
Protocol: pRB ICW Assay in OVCAR3 Cells
OVCAR3 cells were maintained in RPMI (Corning, Catalog #: 10-040-CV) supplemented with 10% v/v FBS (Gibco, Catalog #: 26140-079), 1% v/v Penicillin Streptomycin (Gibco, Catalog #15140-122.) OVCAR3 cells grown at log phase were trypsinized, counted, and resuspended in fresh medium to reach a final density of 6.7e4 cells/mL and 75 μL of culture were dispensed into a 384-well plate (Falcon, cat #353962) using a Multidrop Combi dispenser (Thermo Scientific). The next day, compounds were dispensed as a 9-point, ½ log serial dilution using a Tecan digital dispenser (D300e), and cells were incubated with compound for 2 hours in a humidified incubator at 37° C. A reference compound at a final concentration of 10 μM was used as a control for maximum inhibition. Each compound was tested in duplicates for each experiment. At the end of the incubation, 25 μL of 16% paraformaldehyde (Electron Microscopy, cat #15710) was slowly added to each well and the plate was incubated at room temperature (RT) for 30 minutes to fix cells. Cells were then permeabilized by incubating with 50 μL/well of wash buffer (lx PBS with 0.1% Triton X-100) 5×5 minutes, followed by 1 hour blocking with 30 μL/well of Odyssey blocking buffer (Li—COR, cat #927-40000), at RT. Anti-phosphor RB antibody (Cell signaling 8516S) was diluted 1:1000 in Odyssey blocking buffer and 20 μL was added to all wells and incubated overnight in 4° C. with gently rocking. The next day, cells were washed 5×5 min with 50 μL/well of wash buffer, followed with 1 hour incubation with secondary antibody and DRAQ5 diluted in Odyssey blocking buffer (1:500 dilution for secondary antibody and 1:2000 dilution for DRAQ5), 5×5 min washes, and one last wash with water. Plates were dried in 37° C. oven for 5 minutes and scanned using Li—COR Odyssey CLx imaging system to acquire intensities at 700 and 800 nm channels.

| Structure (SMILES) | IC50 |
| --- | --- |
| CC12CCCCN1C(=O)c1cc(-c3nc(NC4CCN(S(C)(=O)=O)CC4)ncc3F)sc12 (single isomer, unassigned) [8 or 7] | 100 to 500 nM |
| CC(C)C12CCCN1C(=O)c1cc(-c3nc(NC4CCN(S(C)(=O)=O)CC4)ncc3C(F)(F)F)sc12 (single isomer, unassigned) | 100 to 500 nM |
| CC(C)C12CCCCN1C(=O)c1cc(-c3nc(NC4CCN(S(C)(=O)=O)CC4)ncc3C(F)(F)F)sc12 (single isomer, unassigned) | 100 to 500 nM |
| CC12CCCCN1C(=O)c1cc(-c3nc(NC4CCN(S(C)(=O)=O)CC4)ncc3F)sc12 (single isomer, unassigned) [7 or 8] | < 100 nM |

These compounds were tested against CDK4/Cyclin D1 (Homo sapiens, UniProt P11802) (assay: CDK4/CyclinD1 Enzymatic Activity Assay (TR-FRET)). Conditions: read-out: CDK4_D1 IC50, CDK4/CyclinD1 1 nM, ATP 2 mM.
Protocol: CDK4/CyclinD1 Enzymatic Activity Assay
The inhibitory activity of compounds was evaluated in vitro using TR-FRET assay with white 384-well low volume microplate (Greiner Bio-One). CDK4/Cyclin D1 catalyzed phosphorylation of peptide in the presence and absence of compounds was measured and used in IC50 determination. Recombinant protein complex CDK4/Cyclin D1, expressed from insect cell, was purchased from ProQinase. Testing compounds were dissolved in DMSO at 1 mM and tested in 9-dose IC50 mode. The reaction mixture was prepared by mixing CDK4/CyclinD1 (1 nM final), ULight-4E-BP1 (100 nM final, Perkinelmer, TRF0128-D), and ATP (2 mM final) in assay buffer (20 mM of HEPES pH 7.4, 1 mM of EGTA, 0.05% BSA, 0.005% Tween 20, and 1 mM TCEP). The compound of interest in DMSO was added to each well in 3-fold serial dilution by the dispenser (TECAN D300E) to make a 9.9 μL of reaction mixture. After 20 minutes preincubation at room temperature, 0.1 μL MgCl2 (10 mM final) was added to initiate the reaction. Following a 45 minute incubation at 37° C., the reaction was stopped by addition of 2 μL of quenching buffer consisting of Lance detection buffer (Perkinelmer CR97-100C), LANCE Ultra Europium-anti-P-4E-BP1 (Perkinelmer, TRF0216-D), EDTA, and incubated at room temperature for additional 60 minutes in dark. The reaction signal was measured by Envision multimode plate reader (PerkinElmer, 2102-0010). IC50 values were determined by fitting the data to the standard 4 parameters with Hill Slope using GraphPad Prism software.

| Structure (SMILES) | IC50 |
| --- | --- |
| CC12CCCCN1C(=O)c1cc(-c3nc(NC4CCN(S(C)(=O)=O)CC4)ncc3F)sc12 (single isomer, unassigned) [8 or 7] | < 100 nM |
| CC(C)C12CCCN1C(=O)c1cc(-c3nc(NC4CCN(S(C)(=O)=O)CC4)ncc3C(F)(F)F)sc12 (single isomer, unassigned) | < 100 nM |
| CC(C)C12CCCCN1C(=O)c1cc(-c3nc(NC4CCN(S(C)(=O)=O)CC4)ncc3C(F)(F)F)sc12 (single isomer, unassigned) | < 100 nM |
| CC12CCCCN1C(=O)c1cc(-c3nc(NC4CCN(S(C)(=O)=O)CC4)ncc3F)sc12 (single isomer, unassigned) [7 or 8] | < 100 nM |
